Amino acid sequences for entries named in this document (tags omitted).
UniProt P08912, whole entry, looked up: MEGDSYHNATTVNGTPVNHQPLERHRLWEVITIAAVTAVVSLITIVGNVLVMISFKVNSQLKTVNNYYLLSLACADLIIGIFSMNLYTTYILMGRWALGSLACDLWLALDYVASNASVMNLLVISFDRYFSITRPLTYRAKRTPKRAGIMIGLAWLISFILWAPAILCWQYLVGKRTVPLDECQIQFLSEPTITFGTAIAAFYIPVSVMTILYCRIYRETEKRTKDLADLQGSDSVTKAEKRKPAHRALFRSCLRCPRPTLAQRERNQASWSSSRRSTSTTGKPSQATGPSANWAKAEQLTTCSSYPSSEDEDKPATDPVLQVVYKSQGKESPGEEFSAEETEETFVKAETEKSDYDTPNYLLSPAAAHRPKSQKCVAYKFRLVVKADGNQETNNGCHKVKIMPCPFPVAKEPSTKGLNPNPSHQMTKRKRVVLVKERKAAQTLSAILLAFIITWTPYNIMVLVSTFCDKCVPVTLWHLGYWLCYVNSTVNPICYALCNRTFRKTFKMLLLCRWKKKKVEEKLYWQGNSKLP

The list shows a part of the results, in another mix than the full data. Activity calls are given as the source filed them.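 How the source made its calls: active means activation above the run cutoff, the mean activation of all test compounds plus 3 SD (cut at about 18% in these data); inactive means the rest.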
What follows are compounds tested against Muscarinic acetylcholine receptor M5 (Homo sapiens) (UniProt P08912) (assay: human M5 muscarinic receptor positive allosteric modulators, primary screen, CHO-K1 cells, Fluo-8 calcium fluorescence (AID 624038)). Details: CHO-K1 hM5, Fluo-8 calcium, ACh EC20 PAM; at 3 µM; hits give high values; 0% = ACh EC20, 100% = ACh EC100.
In the case of `CN1CCCC(OC(=O)C(c2ccccc2)c2ccccc2)C1` (centres undefined), the activation is reported as inactive: -41.4%. In the case of `CC(C)[C@H]1C(=O)O[C@@H]2CCN3CC=C(COC(=O)[C@](C)(O)[C@]1(C)O)[C@H]23`, the activation is reported as inactive: -3.95%. `COc1ccccc1OP(=O)(Nc1ccc(C)cn1)Oc1ccccc1OC` was tested, and the activation was inactive: -6.51%. `Cc1ccc(OP(=O)(Nc2nccs2)Oc2ccc(C)cc2)cc1` was tested, and the activation was inactive: 4.69%. With `CN(C(=O)Cc1ccc(Cl)c(Cl)c1)[C@H]1CCCC[C@H]1N1CCCC1` the activation was inactive: -8.72%. `Cc1ccc(N/C(=N/P(=O)(N2CCOCC2)N2CCOCC2)N2CCOCC2)cc1` was tested, and the activation was inactive: -5.01%. For `NC(=O)c1cc([N+](=O)[O-])cc([N+](=O)[O-])c1N`, the activation was inactive: 11%. With `c1cc(-c2nn[nH]n2)ccc1-c1nn[nH]n1` the activation was inactive: 2.52%. For `CC1CCN(C(=O)Oc2c(Cl)cc(Cl)c3cccnc23)CC1`, the activation was inactive: -0.84%. In the case of `CC(C)=N/N=C(\N)N[N+](=O)[O-]`, the activation is reported as inactive: 6.06%. With `CC(C)c1nc(Nc2ccccc2)n(P(=O)(N(C)C)N(C)C)n1` the activation was inactive: -1.26%. With `CN(C)C(=O)OCCc1n(C)cc[n+]1C` the activation was inactive: -6.77%. For `CCN(/C(=N/P(=O)(N1CCOCC1)N1CCOCC1)N1CCOCC1)c1ccc(OC)cc1`, the activation was inactive: 0.31%. `Nc1ccc([As](=O)(O)c2ccc(N)cc2)cc1` was tested, and the activation was inactive: 2.42%. With `C[N+]1=C2C=CC=CC=C2SC12C([N+](=O)[O-])=CC([N+](=O)[O-])=C[C-]2[N+](=O)[O-]` (centres undefined) the activation was inactive: -6.71%. In the case of `Cc1ccc(NP(=O)(Oc2ccccc2)Oc2ccccc2)nc1`, the activation is reported as inactive: 7.29%. In the case of `O=[N+]([O-])c1cc([N+](=O)[O-])c(CCNc2ccccc2)c([N+](=O)[O-])c1`, the activation is reported as inactive: 0.09%. `CCc1nc2c(n1)c1c(non1O)c1c2no[n+]1[O-]` was tested, and the activation was inactive: -6.54%. In the case of `CC(=O)N1C2C3N(C(C)=O)C1C1N(C(C)=O)C(C(N1C(C)=O)N3C(C)=O)N2C(C)=O`, the activation is reported as inactive: 5.41%. In the case of `O=[N+]([O-])c1cccc2n[nH]nc12`, the activation is reported as inactive: -8.32%. `COc1ccc(C2=NCC(CBr)S2)cc1` (centres undefined) was tested, and the activation was inactive: 1.73%. `C/C=C1/C[C@@H](C)[C@](O)(CO)C(=O)OCC2=CCN3CC[C@@H](OC1=O)[C@@H]23` was tested, and the activation was inactive: 4.77%. For `O=C(O)CNc1ccc([As](=O)(O)O)cc1`, the activation was inactive: -4.34%. `O=[N+]([O-])c1cccc(NC2=NCC(CBr)S2)c1` (centres undefined) was tested, and the activation was inactive: -3.33%. With `COC(=O)C1(C)COP(=O)(Nc2ccccc2)OC1` (centres undefined) the activation was inactive: -0.26%. For `O=[N+]([O-])c1ncn(CCn2ncnc2[N+](=O)[O-])n1`, the activation was inactive: -0.81%. With `CC(C)(C)C(=O)NC(Sc1ccncn1)C(Cl)(Cl)Cl` (centres undefined) the activation was inactive: -8.35%. For `O=C(Nc1cc([As](=O)(O)O)ccc1O)c1ccccc1`, the activation was inactive: 5.11%. With `O=P1(N(CCCl)CCCl)OCCCS1` (centres undefined) the activation was active: 22.2%.

From PubChem BioAssay AID624038 (The Scripps Research Institute Molecular Screening Center, 2012)
